# Experimental data from patent US8945566B2, “Methods for improving the bioactivity of therapeutic IgE antibodies for the treatment of disease” (Quest PharmaTech, Inc., priority 2008, dated 2015).
# Test system: ECD-Her2
# Test: antigen presentation assay (APA): dendritic cells loaded with Her2 antigen and antibody, T cell IFN-γ staining
# Type: cell-based, human
# Details: DC loaded with ECD-Her2 plus Ab, three rounds of stimulation, intracellular cytokine staining and flow cytometry
# Description: FIG. 1: schematic of antigen presentation assay (APA). Dendritic cells (DC) are cultured from human PBMCs in the presence of IL-4 and GM-CSF. On day 7, the primary culture is loaded with tumor associated antigen (TAA) and antibody (Ab) and matured with a standard maturation cocktail (e.g. TNF-α/IFN-α). Next, T cells are added and cultured for 7 days. Subsequently, the T cell culture is stimulated with two additional rounds of TAA/Ab using fresh DC cultures. Following the third round of TAA/Ab stimulation, the T cells are analyzed for tumor-specific responses.
# Human dendritic cells (DC) are cultured from human PBMCs in the presence of IL-4 and GM-CSF as previously described (Berlyn 2001) and illustrated in FIG. 1. On day 7, the primary culture is loaded with tumor associated antigen (TAA) and antibody (Ab) and matured with a standard maturation cocktail (e.g. TNF-α/IFN-α). The culture is then combined with autologous lymphocytes and cultured for 7 days. […] Cells are then washed, fixed, and permeabilized and stained intracellularly with anti-IFN-γ-PE and analyzed by flow cytometry. […] T cells from APA assay were analyzed for IFN-γ production by intracellular cytokine staining and flow cytometry. […] Quantification of the effect of the antibody antigen combinations tested in FIG. 2 are illustrated in FIG. 3, and FIG. 4. […]
substance,measurement,value
anti-Her2 IgG1: anti-Her2 IgG1 (Herceptin),antigen presentation (IFN-γ production by CD8+ and CD4+ T cells),enhanced
